Chains of the proteins cited; added tags and fusions are not shown. Residues count along the entry.
UniProt P10721, 26-976 limits assumed: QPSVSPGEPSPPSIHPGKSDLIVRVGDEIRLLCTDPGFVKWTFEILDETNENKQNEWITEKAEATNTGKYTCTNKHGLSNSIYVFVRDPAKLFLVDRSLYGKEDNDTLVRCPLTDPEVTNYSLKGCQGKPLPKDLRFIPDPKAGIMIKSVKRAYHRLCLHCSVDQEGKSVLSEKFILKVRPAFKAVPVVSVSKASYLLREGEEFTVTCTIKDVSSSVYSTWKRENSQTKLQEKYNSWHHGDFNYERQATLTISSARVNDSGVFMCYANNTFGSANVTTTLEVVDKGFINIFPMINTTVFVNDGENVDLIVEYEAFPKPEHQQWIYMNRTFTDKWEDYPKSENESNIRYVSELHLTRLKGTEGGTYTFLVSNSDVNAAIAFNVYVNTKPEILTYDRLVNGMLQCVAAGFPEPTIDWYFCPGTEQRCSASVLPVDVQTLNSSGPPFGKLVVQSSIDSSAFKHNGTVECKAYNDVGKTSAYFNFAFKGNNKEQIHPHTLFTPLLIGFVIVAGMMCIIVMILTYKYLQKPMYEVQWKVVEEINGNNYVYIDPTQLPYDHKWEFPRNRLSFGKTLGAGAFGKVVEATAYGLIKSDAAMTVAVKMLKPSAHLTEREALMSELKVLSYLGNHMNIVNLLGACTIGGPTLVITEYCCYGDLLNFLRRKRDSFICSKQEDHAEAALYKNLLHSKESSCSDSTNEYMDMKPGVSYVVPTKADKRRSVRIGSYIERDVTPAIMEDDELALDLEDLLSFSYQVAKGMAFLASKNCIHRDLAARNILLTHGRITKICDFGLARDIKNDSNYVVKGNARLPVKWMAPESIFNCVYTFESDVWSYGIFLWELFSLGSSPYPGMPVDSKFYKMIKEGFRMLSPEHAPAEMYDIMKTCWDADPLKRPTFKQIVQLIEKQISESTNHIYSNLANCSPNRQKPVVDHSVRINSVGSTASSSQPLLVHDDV

According to patent publication US20250059174A1, “Pharmaceutical Compounds and Compositions as C-Kit Kinase Inhibitors” (Enanta Pharmaceuticals, Inc., priority 2023, published 2025):

Experiments:
M-07e cells = test: M-07e cellular assay (SCF-mediated cell proliferation); conditions: read-out: M-07e EC50, 72 hours, CellTiter Glo
[1] = target: Recombinant human c-KIT kinase (Homo sapiens (Human), UniProt P10721); test: c-KIT kinase chemiluminescence assay (ADP-Glo); assay type: biochemical; conditions: read-out: c-Kit IC50, ATP 50 μM

| Structure (SMILES) | EC50 (M-07e cells) [nM] | IC50 [1] [µM] |
| --- | --- | --- |
| Cc1ccc(-c2nc([C@H]3C[C@@H]3F)c[nH]2)cc1NC(=O)c1cnn2ccc(N3CC4(COC4)C3)cc12 | < 100 | < 0.1 |
| O=C(Nc1cc(-c2noc([C@H]3C[C@@H](OC(F)F)C3)n2)ccc1Cl)c1cnn2ccc(N3CC4(C3)CC(O)(C(F)(F)F)C4)cc12 | 100 to 1000 |  |
| Cc1ccc(-c2nc([C@H]3C[C@@H]3F)co2)cc1NC(=O)c1cnn2ccc(N3CC4(COC4)C3)cc12 | < 100 | < 0.1 |
